The compounds below were run against Adenylate cyclase type 10 (Homo sapiens, UniProt Q96PN6).

Chains of the proteins cited; added tags and fusions are not shown. Lines headed by an entry give the natural chain unless they say otherwise; changes in a name come on top.
UniProt Q96PN6: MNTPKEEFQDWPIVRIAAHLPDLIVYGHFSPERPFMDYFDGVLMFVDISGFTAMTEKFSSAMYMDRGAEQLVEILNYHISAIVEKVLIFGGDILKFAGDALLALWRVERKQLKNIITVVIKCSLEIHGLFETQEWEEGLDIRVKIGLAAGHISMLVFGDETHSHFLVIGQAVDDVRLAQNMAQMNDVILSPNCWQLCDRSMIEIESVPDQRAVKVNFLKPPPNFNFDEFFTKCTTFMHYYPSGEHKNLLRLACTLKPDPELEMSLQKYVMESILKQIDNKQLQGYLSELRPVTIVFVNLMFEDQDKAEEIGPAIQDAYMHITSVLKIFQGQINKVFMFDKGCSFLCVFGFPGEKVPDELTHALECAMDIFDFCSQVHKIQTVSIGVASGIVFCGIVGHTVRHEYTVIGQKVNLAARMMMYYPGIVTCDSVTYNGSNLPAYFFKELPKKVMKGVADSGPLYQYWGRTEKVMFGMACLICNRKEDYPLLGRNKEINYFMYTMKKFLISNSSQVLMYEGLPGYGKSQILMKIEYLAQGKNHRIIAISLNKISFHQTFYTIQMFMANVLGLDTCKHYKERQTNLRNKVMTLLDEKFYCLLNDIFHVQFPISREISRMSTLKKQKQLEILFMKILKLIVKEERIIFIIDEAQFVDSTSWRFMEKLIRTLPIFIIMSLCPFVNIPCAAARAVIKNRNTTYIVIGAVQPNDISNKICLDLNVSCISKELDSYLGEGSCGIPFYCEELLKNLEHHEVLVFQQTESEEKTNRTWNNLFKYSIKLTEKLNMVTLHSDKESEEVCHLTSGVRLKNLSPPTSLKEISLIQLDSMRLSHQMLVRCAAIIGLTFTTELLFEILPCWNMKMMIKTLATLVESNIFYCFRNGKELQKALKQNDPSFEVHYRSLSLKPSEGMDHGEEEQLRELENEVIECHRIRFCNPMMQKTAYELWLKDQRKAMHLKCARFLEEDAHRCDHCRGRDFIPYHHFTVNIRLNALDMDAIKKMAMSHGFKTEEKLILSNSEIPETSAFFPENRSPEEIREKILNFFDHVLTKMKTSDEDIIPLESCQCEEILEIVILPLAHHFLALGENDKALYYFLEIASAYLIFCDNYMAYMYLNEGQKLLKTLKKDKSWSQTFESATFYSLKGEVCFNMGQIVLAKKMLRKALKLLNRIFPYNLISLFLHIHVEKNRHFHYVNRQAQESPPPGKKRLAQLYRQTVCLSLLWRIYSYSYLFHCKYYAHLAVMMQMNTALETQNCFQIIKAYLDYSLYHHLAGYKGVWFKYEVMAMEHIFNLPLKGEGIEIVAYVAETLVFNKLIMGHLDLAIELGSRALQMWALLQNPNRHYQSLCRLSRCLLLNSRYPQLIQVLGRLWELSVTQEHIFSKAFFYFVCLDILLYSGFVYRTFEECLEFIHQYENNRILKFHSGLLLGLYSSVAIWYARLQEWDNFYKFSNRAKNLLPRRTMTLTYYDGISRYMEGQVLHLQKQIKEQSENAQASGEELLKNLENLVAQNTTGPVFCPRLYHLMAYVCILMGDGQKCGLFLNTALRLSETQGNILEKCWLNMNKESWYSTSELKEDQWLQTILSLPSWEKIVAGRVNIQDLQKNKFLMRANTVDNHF

| IC50 [nM] | Structure (SMILES) |
| --- | --- |
| > 10000 | Cc1c(Cc2ncccn2)c(-c2cc(Cl)nc(N)n2)nn1C |
| 351 | COc1cccc(Cc2cn(C)nc2-c2cc(Cl)nc(N)n2)c1 |
| 989 | Cn1cc(Cc2ccccc2)c(-c2cc(Cl)nc(N)n2)n1 |
